Assay results: publication PMC9099060 (Dose-Response, 2022)

The chains behind the UniProt entries cited, without tags or fusion partners.
UniProt P27487, whole entry: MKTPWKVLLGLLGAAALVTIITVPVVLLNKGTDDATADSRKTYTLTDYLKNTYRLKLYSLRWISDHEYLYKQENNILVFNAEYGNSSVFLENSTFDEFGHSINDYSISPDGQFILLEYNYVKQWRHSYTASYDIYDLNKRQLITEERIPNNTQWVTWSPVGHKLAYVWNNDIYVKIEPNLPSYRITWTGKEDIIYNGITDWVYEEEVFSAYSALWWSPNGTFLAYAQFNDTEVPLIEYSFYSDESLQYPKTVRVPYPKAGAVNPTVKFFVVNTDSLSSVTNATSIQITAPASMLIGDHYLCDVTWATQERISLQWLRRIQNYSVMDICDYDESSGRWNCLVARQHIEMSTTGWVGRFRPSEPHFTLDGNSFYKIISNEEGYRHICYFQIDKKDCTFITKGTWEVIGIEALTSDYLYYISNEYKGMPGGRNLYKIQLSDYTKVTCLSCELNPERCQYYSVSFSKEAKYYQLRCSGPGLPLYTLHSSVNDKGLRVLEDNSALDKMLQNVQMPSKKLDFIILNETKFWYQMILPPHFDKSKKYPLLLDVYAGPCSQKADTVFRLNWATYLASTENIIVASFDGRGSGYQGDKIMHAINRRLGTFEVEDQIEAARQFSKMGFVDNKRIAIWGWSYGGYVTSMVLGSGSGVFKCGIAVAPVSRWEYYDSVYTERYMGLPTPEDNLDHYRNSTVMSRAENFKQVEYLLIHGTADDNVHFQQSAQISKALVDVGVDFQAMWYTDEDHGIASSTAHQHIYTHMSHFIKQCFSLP

Experiments:
[1] = biological target: T1, DPP-IV (Homo sapiens, UniProt P27487); test: Inhibitory kinetics study; assay type: biochemical
Procedure, shortened: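 Test compound was tested separately at 0.25 and 0.5 mg/mL, each against Gly-Pro-AMC at various concentrations (0–60 μM). Inhibition pattern was assigned from Lineweaver-Burk plots. Ki was obtained from a double-reciprocal plot of initial […] against substrate. Values are mean ± SD, n = 6.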

[2] = biological target: T1, DPP-IV; test: In vitro inhibitory activity against DPP-IV; assay type: biochemical

- Ki [1]: 7.32 µM
- IC50 [2]: 7.21 ± 0.021 µM
Structure (SMILES): CC[C@H](C)[C@H](N)C(=O)N1CCC[C@H]1C(=O)N[C@H](C(=O)O)[C@@H](C)CC [Diprotin A, reference compound]
